Results reported in US20240327364A1, “THERAPEUTIC TARGETING OF GPR68 TO INDUCE FERROPTOSIS” (University Of Maryland, Baltimore, priority 2023, published 2024).

Sequences of proteins named here, by UniProt entry; tags and fusion partners are left off.
UniProt Q15743, whole entry: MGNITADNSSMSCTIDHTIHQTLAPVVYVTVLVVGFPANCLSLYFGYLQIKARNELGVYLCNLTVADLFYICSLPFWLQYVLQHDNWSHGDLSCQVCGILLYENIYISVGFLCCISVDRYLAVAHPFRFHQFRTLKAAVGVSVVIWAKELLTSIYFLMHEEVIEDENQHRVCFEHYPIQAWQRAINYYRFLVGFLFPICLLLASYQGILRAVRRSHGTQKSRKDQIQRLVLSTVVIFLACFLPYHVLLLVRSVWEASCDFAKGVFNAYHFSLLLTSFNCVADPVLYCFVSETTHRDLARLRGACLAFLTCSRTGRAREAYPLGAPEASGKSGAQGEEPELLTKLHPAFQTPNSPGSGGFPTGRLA

Target: GPR68/OGR1 (Homo sapiens, UniProt Q15743)
Experiment: CHEM1-OGR1 cells Fluo-8 calcium assay, acidified media pH 6.4
Conditions: read-out: GPR68; Table 5
Procedure: Briefly, the methods were: On the day before the assay 20,000 cells per well of CHEM1-OGR1 cells were plated in 10% DMEM containing 10% FBS and 1% Pen/Strep into a 96 well plate. After 24 hours media was removed and cells were stained with 80 μL Fluo-8 calcium indicator dye according to manufacturer's protocol. After staining cells were treated with 20 uL of 4× concentration of test compounds. Using kinetic imaging in the Lionheart HCS fluorescence intensity was continuously measure at 10 frames per second, for 5 seconds before 100 μL of acidified media was added to the well resulting in a pH of 6.4. A ratio of fluorescence intensities prior to addition and at peak were calculated and averaged. The resulting data were platted and using a 4 parameter logistic regression EC50 (the concentration causing 50% effective inhibition) for each test compound was determined.

`CN1C(=O)C2(NN=C(c3ccccc3)S2)c2ccccc21` (stereo not shown) showed an EC50 of 810 nM.
